A short description of the series: In vivo biodistribution method. Also on record: species or system Adult male Wistar rats. As for the experimental part: Imaging agents of the invention were tested in an in vivo biodistribution model along with a previous tetracyclic imaging agent (from co-pending patent application PCT/EP2009/062827; synthesis described in Example 18 below).

Regarding `CCN(CC)C(=O)C1CCCc2c1c1cc(F)ccc1n2CC[18F]` (centres unmarked) [Imaging agent 9, 6-Fluoro-9-(2-[^18F]fluoro-ethyl)-2,3,4,9-tetrahydro-1H-carbazole-4-carboxylic acid diethylamide], under “ratio olfactory bulb to striatum at 30 min”, the “OB: Str 30 min” value is 3.72. Also, under “ratio striatum 2 min to 30 min”, the “Str 2: 30 min” value is reported as 4.27.

These data come from patent US9220795B2, “Indole derivatives” (priority 2011, dated 2015).
